{"source": "BindingDB's records for doi:10.1124/mol.51.1.109", "about": "(Max-Planck Institute For Experimental Medicine, 1997)", "molecular_target": "T1, P2X purinoceptor 4 (Homo sapiens, UniProt Q99571)", "T1 sequence (Q99571 whole entry)": "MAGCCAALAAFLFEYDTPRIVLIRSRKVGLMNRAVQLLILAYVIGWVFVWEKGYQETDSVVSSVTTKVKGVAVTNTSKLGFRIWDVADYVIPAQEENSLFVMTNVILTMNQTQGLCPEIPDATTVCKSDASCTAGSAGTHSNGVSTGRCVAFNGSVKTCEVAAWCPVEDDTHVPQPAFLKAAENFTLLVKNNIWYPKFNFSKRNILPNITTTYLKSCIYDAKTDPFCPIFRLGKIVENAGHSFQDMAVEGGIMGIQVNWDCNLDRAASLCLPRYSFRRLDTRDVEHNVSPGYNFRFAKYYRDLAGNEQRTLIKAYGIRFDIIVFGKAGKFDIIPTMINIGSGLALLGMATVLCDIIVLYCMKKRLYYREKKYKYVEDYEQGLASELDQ", "data": [{"smiles": "Cc1nc(/N=N/c2ccc(S(=O)(=O)O)cc2S(=O)(=O)O)c(COP(=O)(O)O)c(C=O)c1O", "values": [{"measurement": "Ki", "result": 0.0275, "unit": "µM"}]}, {"smiles": "Nc1c(S(=O)(=O)O)cc(Nc2ccc(Nc3nc(Cl)nc(Nc4ccccc4S(=O)(=O)O)n3)c(S(=O)(=O)O)c2)c2c1C(=O)c1ccccc1C2=O", "values": [{"measurement": "Ki", "result": 0.0392, "unit": "µM"}]}]}
